Results: article PMC8586700 (Frontiers in Pharmacology, 2021)

Columns and labels:
[1] = Repeated administration, drug concentrations of plasma and brain; type: in vivo, SD rats; settings: Group III: CUR and ILE
Description: Plasma or brain homogenate of SD rats was taken 50 μL, internal standard solution of 50 μL and protein precipitator of 150 μL were added. After eddy oscillation for 3 min, supernatant was separated by centrifugation.
The concentration of drugs in plasma and brain homogenate after repeated administration was determined according to the same grouping and administration method. The loading dose of 200 mg kg^−1 was given for the first time and half doses for four consecutive days.
Plasma was collected by centrifugation of blood at 3000 RPM for 10min, and stored at -80 °C. Brain tissue of SD rat was dissected, weighed and added with normal saline at a volume of 2 ml g^−1. After homogenating brain tissue for 3 min by a homogenizer at 14,000 RPM, the supernatant was collected after centrifugation at 12,000 RPM for 10 min.

[2] = Stability experiment in plasma and brain homogenate samples; type: in vitro ADME, SD rats
Description: Three blank samples of plasma and brain homogenate of SD rats were added into the mixed standard solution. The stability experiment included placing at room temperature for 12 h, repeatedly freeze-thaw for three times and frozen for 15 days.

- Mean concentrations±sd, ILE in plasma after multiple doses [1]: 2800 ± 300 ng/mL
- Recovery after 12 h placement at room temperature ([2]; brain homogenate samples): only showed slight decrease
- Recoveries after being kept at room temperature for 12 h ([2]; plasma samples): < 90%
Structure (SMILES): O=C(/C=C/c1ccc2c(c1)OCO2)N1CCCCC1 [ILE, Ilepcimide, reference compound]
